Assay results taken from patent US10253089B2, “Matrix metalloproteinase cleavable protein polymers for cancer gene therapy” (The University of Utah Research Foundation, priority 2012, dated 2019).

Biological target: T1, Human Leukocyte Elastase (Homo sapiens, UniProt P08246)
T1 sequence (P08246 30-247 limits assumed): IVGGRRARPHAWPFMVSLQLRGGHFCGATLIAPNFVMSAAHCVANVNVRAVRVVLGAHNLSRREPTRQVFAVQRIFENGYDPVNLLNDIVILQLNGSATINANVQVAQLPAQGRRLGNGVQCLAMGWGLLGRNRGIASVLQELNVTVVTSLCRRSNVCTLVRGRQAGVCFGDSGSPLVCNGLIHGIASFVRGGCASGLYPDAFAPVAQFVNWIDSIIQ

B1: SELP815K: silk-elastin-like protein polymer, longer silk units, fifteen elastin units, lysine elastin unit; monomer repeated 6 times (SEQ ID NO. 21) (protein)
chain: MDPVVLQRRDWENPGVTQLNRLAAHPPFASDPMGAGSGAGAGSGAGAGSGVGVPGVGVPGVGVPGVGVPGKGVPGVGVPGVGVPGVGVPGVGVPGVGVPGVGVPGVGVPGVGVPGVGVPGVGVPGVGVPGAGAGSGAGAGSGAGAGSGAGAGSGAGAGSGAGAGAGSGAGAGSGAGAGSGVGVPGVGVPGVGVPGVGVPGKGVPGVGVPGVGVPGVGVPGVGVPGVGVPGVGVPGVGVPGVGVPGVGVPGVGVPGVGVPGAGAGSGAGAGSGAGAGSGAGAGSGAGAGSGAGAGAGSGAGAGSGAGAGSGVGVPGVGVPGVGVPGVGVPGKGVPGVGVPGVGVPGVGVPGVGVPGVGVPGVGVPGVGVPGVGVPGVGVPGVGVPGVGVPGAGAGSGAGAGSGAGAGSGAGAGSGAGAGSGAGAGAGSGAGAGSGAGAGSGVGVPGVGVPGVGVPGVGVPGKGVPGVGVPGVGVPGVGVPGVGVPGVGVPGVGVPGVGVPGVGVPGVGVPGVGVPGVGVPGAGAGSGAGAGSGAGAGSGAGAGSGAGAGSGAGAGAGSGAGAGSGAGAGSGVGVPGVGVPGVGVPGVGVPGKGVPGVGVPGVGVPGVGVPGVGVPGVGVPGVGVPGVGVPGVGVPGVGVPGVGVPGVGVPGAGAGSGAGAGSGAGAGSGAGAGSGAGAGSGAGAGAGSGAGAGSGAGAGSGVGVPGVGVPGVGVPGVGVPGKGVPGVGVPGVGVPGVGVPGVGVPGVGVPGVGVPGVGVPGVGVPGVGVPGVGVPGVGVPGAGAGSGAGAGSGAGAGSGAGAGSGAGAGSGAGAMDPGRYQDLRSHHHHHH
modifications: monomer repeated 6 times; Hybrid of Homo sapein and Bombyx mori
In the case of B1, the “sensitivity to elastase degradation (soluble fraction release)” value is reported as “lowest sensitivity to degradation” and the “resistance to elastase degradation” value (8 wt % hydrogel vs SELP47K and SELP415K at 12 wt %) is reported as “more resistant to degradation”.
